The values that follow come from US12606533B2, “3-phenylpropylamine derivative” (DAIICHI SANKYO COMPANY, LIMITED, priority 2023, dated 2026).

By UniProt entry, the sequences of proteins in these tests, tags left out.
UniProt Q13285, whole entry: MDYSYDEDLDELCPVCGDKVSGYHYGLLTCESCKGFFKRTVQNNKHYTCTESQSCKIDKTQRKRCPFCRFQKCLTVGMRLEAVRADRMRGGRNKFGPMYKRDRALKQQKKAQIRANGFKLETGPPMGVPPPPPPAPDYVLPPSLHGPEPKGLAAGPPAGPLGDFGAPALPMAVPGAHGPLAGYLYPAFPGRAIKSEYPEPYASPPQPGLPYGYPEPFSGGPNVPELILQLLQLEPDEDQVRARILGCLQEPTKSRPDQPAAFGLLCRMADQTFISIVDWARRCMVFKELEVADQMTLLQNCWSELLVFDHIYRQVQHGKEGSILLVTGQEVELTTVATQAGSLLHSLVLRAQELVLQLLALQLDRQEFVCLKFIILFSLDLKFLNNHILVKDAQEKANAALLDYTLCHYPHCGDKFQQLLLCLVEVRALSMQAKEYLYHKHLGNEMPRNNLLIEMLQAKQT

In the experiment the target is SF-1 (Homo sapiens, UniProt Q13285). Kind of experiment: SF1 degradation induction in NCI-H295R SF-1-HiBiT cells (HiBiT DC50). The note with it: read-out: HiBiT DC50, 24 hr, concentration that induces 50% degradation of SF-1. On the technique in general: HiBiT is a short tag that completes a luciferase, so light tracks the accessible tagged protein.

With `COc1ccc([C@]2(CCN(Cc3ccc([C@H]4CC[C@H](CN5CCN(C(=O)c6ccc7c(c6)n(C)c(=O)n7C6CCC(=O)NC6=O)CC5)CC4)cc3)CC(C)(C)C(F)(F)F)CCOC(C)(C)C2)cc1` (stereo partly shown), the DC50 was found to be 5.3 nM.
